Laboratory results taken from ChEMBL document CHEMBL5236619, “Design and Optimization of 1H-1,2,3-Triazole-4-carboxamides as Novel, Potent, and Selective Inverse Agonists and Antagonists of PXR” (J Med Chem, 2022).

Experiments:
PXR (NR1I2) = target: T1, PXR (NR1I2) (Homo sapiens, UniProt O75469); test: Inverse agonist activity at human PXR in human HepG2 cells co-expressing luciferase gene under control of CYP3A4 promoter assessed as inhibition in receptor basal activity at 10 uM incubated for 24 hrs by luminescence based analysis relative to control; type: cell-based
T1 sequence (O75469 whole entry): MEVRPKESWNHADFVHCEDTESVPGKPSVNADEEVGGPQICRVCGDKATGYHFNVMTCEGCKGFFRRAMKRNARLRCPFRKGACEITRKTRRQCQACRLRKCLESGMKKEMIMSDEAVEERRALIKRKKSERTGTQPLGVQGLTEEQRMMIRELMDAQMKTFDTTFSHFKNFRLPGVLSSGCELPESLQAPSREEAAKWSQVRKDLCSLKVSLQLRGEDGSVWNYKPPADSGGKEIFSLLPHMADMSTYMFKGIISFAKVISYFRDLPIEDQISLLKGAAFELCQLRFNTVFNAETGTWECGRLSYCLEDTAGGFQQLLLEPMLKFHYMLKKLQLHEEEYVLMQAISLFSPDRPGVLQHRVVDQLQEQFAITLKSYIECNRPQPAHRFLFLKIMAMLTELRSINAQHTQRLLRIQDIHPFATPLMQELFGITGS

[1] = target: T2, PXR (NR1I2) ligand binding domain (Homo sapiens, UniProt O75469); test: Inhibition of BODIPY FL vindoline binding to recombinant human GST-tagged PXR LBD (111 to 434 residues) expressed in baculovirus infected insect cells at 10 uM incubated for 1 mins under shaking condition followed by 60 mins under dark condition by TR-FRET assay relative to control; details: probe BODIPY FL vindoline, time 61 min
T2 sequence (O75469 whole entry): T1 sequence (O75469 whole entry)

[2] = target: T3, Nuclear receptor subfamily 1 group I member 2 (Homo sapiens, UniProt O75469); test: Inhibition of BODIPY FL vindoline binding to recombinant human GST-tagged PXR LBD (111 to 434 residues) expressed in baculovirus infected insect cells incubated for 1 mins under shaking condition followed by 60 mins under dark condition by TR-FRET assay; details: 1.017 h, time 61 min
T3 sequence (O75469 whole entry): T1 sequence (O75469 whole entry)

| SMILES | inhibition at 24 h, 10 µM (PXR (NR1I2)) | inhibition at 1.017 h, 10 µM [1] | inhibition (INH) [2] |
| --- | --- | --- | --- |
| COc1ccc(OC)c(-n2nnc(C(=O)Nc3ccc(O)c(C(C)(C)C)c3)c2C)c1 | 138% | – | – |
| COc1ccc(OC)c(-n2nnc(C(=O)Nc3cc(C(C)(C)C)ccc3OCCCN3CCOCC3)c2C)c1 | 86% | – | – |
| COc1ccc(OC)c(-n2nnc(C(=O)Nc3cc(C(C)(C)C)cc(C(C)(C)C)c3)c2C)c1 | 108% | – | – |
| COc1ccc(OC)c(-n2nnc(C(=O)Nc3cccc(N4CCCC4)c3)c2C)c1 | 64% | 64% | – |
| COc1ccc(OC)c(-n2nnc(C(=O)Nc3cc(Br)cc(C(C)(C)C)c3)c2C)c1 | 139% | – | – |
| CCC(C)COc1ccc(C(C)(C)C)cc1NC(=O)c1nnn(-c2cc(OC)ccc2OC)c1C (stereo not drawn) | 67% | – | – |
| COc1ccc(OC)c(-n2nnc(C(=O)Nc3cc(-c4ccccc4)cc(C(C)(C)C)c3)c2C)c1 | 139% | – | Not Active |
| COc1ccc(OC)c(-n2nnc(C(=O)Nc3cccc(C(C)C)c3)c2C)c1 | 123% | – | – |
| CCCCCCCCOc1ccc(C(C)(C)C)cc1NC(=O)c1nnn(-c2cc(OC)ccc2OC)c1C | 83% | – | – |
| COc1ccc(OC)c(-n2nnc(C(=O)Nc3cc(N)cc(C(C)(C)C)c3)c2C)c1 | 87% | – | – |
| CCCCCOc1ccc(C(C)(C)C)cc1NC(=O)c1nnn(-c2cc(OC)ccc2OC)c1C | 109% | – | – |
